## Yeast mating assay 2: variants of the scFv Ab-91

The measurements come from Engelhart et al. 2022 (doi:10.1038/s41597-022-01779-4) through the FLAb antibody collection.

The target is the same throughout: PDVDLGDISGINAS, from the HR2 region of SARS-CoV-2 spike.

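The starting antibody came from a phage panning campaign against this peptide. Library AAYL51 holds single substitutions and randomly drawn double and triple substitutions in the CDRs. The scFvs were displayed on barcoded MATa yeast, the peptide on MATalpha yeast. Binding brings cells together so that they mate, and sequencing counts the barcode pairs among the diploids. Read counts were normalised to the haploid input and turned into Kd by a linear fit to BCL2-family pairs of known affinity, for each replicate. Mating was done three times.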

Parent: Ab-91, a human scFv built as VL, a 15-residue (Gly4Ser)3 linker, VH. Only the CDRs of the heavy chain vary.
VL: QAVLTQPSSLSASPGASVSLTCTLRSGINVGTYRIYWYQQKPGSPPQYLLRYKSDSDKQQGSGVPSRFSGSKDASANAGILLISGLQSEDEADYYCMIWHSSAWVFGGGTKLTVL
VH: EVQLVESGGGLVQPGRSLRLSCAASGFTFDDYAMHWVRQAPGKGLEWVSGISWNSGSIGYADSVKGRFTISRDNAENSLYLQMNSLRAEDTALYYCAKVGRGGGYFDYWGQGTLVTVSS

Substitutions are numbered in sequence along the VH above, starting at 1 (not Kabat). All variants listed here change I58 of the VH, counted from its first residue. Kd is apparent (estimated from mating counts) and averaged on the log scale over replicates with a signal. Smaller is tighter. A pair that was not seen in any replicate is written "no signal"; this usually means weak binding, but a binder can also be missed.

The variant I58S+V99D+F106K showed no signal (0 of 3 replicates; controls 0 of 9). With H35V+I58Q+F106C the result was no signal (0 of 3 replicates; controls 1 of 9). The variant I58L gave 24 nM (3 of 3 replicates; controls 1 of 9). The variant I58Q+G100V+Y105R gave 3.7 nM (3 of 3 replicates; controls 0 of 9). For F27L+D31E+I58Q, the assay gave no signal (0 of 3 replicates; controls 4 of 9).

The variant I58W+Y108H gave 49 nM (3 of 3 replicates; controls 0 of 9). For I51H+I58W+G100P, the assay gave no signal (0 of 3 replicates; controls 0 of 9). The variant N54A+I58A+G100H showed 2.8 mM (1 of 3 replicates; controls 3 of 9). With A33H+G56P+I58N the result was 30 µM (1 of 3 replicates; controls 0 of 9). The variant F27N+F29V+I58C gave 3.3 µM (1 of 3 replicates; controls 2 of 9).

The variant T28K+N54C+I58G gave 2.2 µM (2 of 3 replicates; controls 3 of 9). The variant M34S+I51D+I58V showed no signal (0 of 3 replicates; controls 0 of 9). For Y32D+S52D+I58F, the assay gave no signal (0 of 3 replicates; controls 2 of 9). The variant G56Y+I58K+V99M showed 7.8 nM (3 of 3 replicates; controls 6 of 9). The variant S57Q+I58F+G102P gave 500 µM (1 of 3 replicates; controls 1 of 9).

For Y32D+I58Q+Y105M, the assay gave 6.2 µM (1 of 3 replicates; controls 1 of 9). The variant S55Y+I58F gave no signal (0 of 3 replicates; controls 0 of 9). With D31W+A33G+I58F the result was 670 pM (3 of 3 replicates; controls 2 of 9). The variant D31A+I58G gave 77 µM (3 of 3 replicates; controls 8 of 9). The variant F27P+I58V+Y108H gave 750 nM (3 of 3 replicates; controls 1 of 9).

The variant D31T+I58G+D62G showed no signal (0 of 3 replicates; controls 0 of 9). The variant I58Y+G102P+G104W showed no signal (0 of 3 replicates; controls 4 of 9). With F29E+I58L+Y105W the result was 13 µM (1 of 3 replicates; controls 0 of 9). With H35L+I58K+V99M the result was 200 µM (2 of 3 replicates; controls 5 of 9). For T28K+I58H+S63A, the assay gave 21 µM (3 of 3 replicates; controls 3 of 9).

The variant G26P+I58Y+Y105S gave no signal (0 of 3 replicates; controls 0 of 9). The variant I51Y+G56S+I58F gave 52 µM (3 of 3 replicates; controls 7 of 9). For I58N+Y60P+R101D, the assay gave 37 µM (2 of 3 replicates; controls 4 of 9).

Empty control strains, which show no peptide, gave a signal in 21% of pairings with library AAYL51; the median was 34 µM and 95% of these signals were weaker than 1.8 µM. No background was subtracted. Also given: how often the same scFv was detected with the empty control strains.